Assay results: patent US20250288536A1, “PROTEIN PARTICLES INCLUDING AN ACTIVE AGENT AND METHODS OF MAKING AND USING THE SAME” (Dairy Mangement Inc., priority 2022, published 2025)

Assay: Particle size, particle size distribution and PDI by DLS (Example 6)
Format: physicochemical
Conditions: pH 11, with HPH

Which mean particle size does the source give for α-lactalbumin here?
Its mean particle size is ~280 nm.
